Earlier results on one substance are cited in PMC10610311, “Eugenol: In Vitro and In Ovo Assessment to Explore Cytotoxic Effects on Osteosarcoma and Oropharyngeal Cancer Cells” (Plants, 2023).

Data set [1] concerns keratinocytes (HaCaT). Conditions: non-tumor cells HaCaT, methotrexate more pronounced; cited from earlier work.
Data set [2] concerns Detroit-562 cells. Also on record: method as in PMID 25559287. Conditions: Detroit-562, effectiveness not as great as afatinib; cited from earlier work.

“cetuximab: conventional antitumor therapy approved by the FDA”: the “cell viability (in words)” value is recorded as “reduced cell viability in a dose-dependent manner” in data set [1] and “decreased cell viability” in data set [2].
